For the experiment, the target named is T1, Arachidonate 5-lipoxygenase-activating protein (Homo sapiens, UniProt A0A087WW23).
T1 sequence (A0A087WW23 whole entry): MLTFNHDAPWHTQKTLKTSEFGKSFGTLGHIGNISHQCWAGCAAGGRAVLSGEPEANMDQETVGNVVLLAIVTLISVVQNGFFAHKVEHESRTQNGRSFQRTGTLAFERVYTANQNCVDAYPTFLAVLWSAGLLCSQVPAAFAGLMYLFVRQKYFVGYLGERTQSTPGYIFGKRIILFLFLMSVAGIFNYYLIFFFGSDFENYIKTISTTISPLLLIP
Nature of the experiment: Homogeneous Time Resolved Fluorescence Assay.

Drawing on BindingDB's records for patent US8952177 (Janssen Pharmaceutica, 2015), this text covers Ki for one compound.

For orientation: Ki means a dissociation constant, usually derived from enzyme kinetics or from competition with a known ligand. A lower Ki goes with tighter binding. In turn, `CCC(CC)(Cc1nc2ccc(OCc3ccc(C)cn3)cc2n1Cc1ccc(N2CCC(F)(F)CC2)cc1)C(=O)O` [US8952177, 170] displayed an inhibitory constant (Ki) of 100 nM.
